From PMC10537403 (Viruses, 2023)
Where two headings read alike, the source gives them in different places.

Tests used:
[1] = tested on: bovine viral diahrrea virus (BVDV, strain NADL ATCC VR-534); settings: MDBK cells, plaque assay
[2] = tested on: bovine herpesvirus type 1 (BoHV-1, Cooper strain); settings: read-out: IC50 against BoHV-1, virus pre-treatment; MDBK cells, virus pre-incubated with peptide 1 h, plaque assay 72 h
[3] = tested on: canine distemper virus (CDV, strain Onderstepoort); settings: VERO/hSLAM cells, plaque assay 72 h
[4] = tested on: caprine herpesvirus type 1 (CpHV-1, reference Swiss strain E/CH); settings: read-out: IC50 against CpHV-1, virus pre-treatment; MDBK cells, virus pre-incubated with peptide 1 h, plaque assay 72 h
[5] = read-out: IC50 against BVDV, co-treatment, peptide and virus added simultaneously
[6] = read-out: IC50 against BVDV, virus pre-treatment, virus pre-incubated with peptide
[7] = read-out: IC50 against CDV, co-treatment, peptide and virus (MOI 0.01) added simultaneously 1 h
[8] = read-out: IC50 against CDV, virus pre-treatment, peptide incubated with virus (MOI 0.1) 1 h at 37 °C, then added on cells

Row | SMILES | IC50 [1, 5] | IC50 [1, 6] | IC50 [2] | IC50 [3, 7] | IC50 [3, 8] | IC50 [4]
1 | CC[C@H](C)[C@H](NC(=O)[C@H](C)N)C(=O)NCC(=O)N[C@@H](CO)C(=O)N[C@H](C(=O)N[C@@H](CC(C)C)C(=O)NCC(=O)N[C@@H](C)C(=O)N[C@@H](CC(C)C)C(=O)N[C@@H](C)C(=O)N[C@@H](CCCCN)C(=O)NCC(=O)N[C@@H](CC(C)C)C(=O)N1CCC[C@H]1C(=O)N[C@H](C(=O)N[C@@H](CC(C)C)C(=O)N[C@H](C(=O)N[C@@H](CO)C(=O)N[C@@H](Cc1c[nH]c2ccccc12)C(=O)N[C@H](C(=O)N[C@@H](CCCCN)C(=O)N[C@@H](CC(N)=O)C(=O)N[C@@H](CCCNC(=N)N)C(N)=O)[C@@H](C)CC)[C@@H](C)CC)[C@@H](C)O)[C@@H](C)CC [AR-23] | 12.5 µM | 6.25 µM | 1.56 µM | 12.5 µM | 6.25 µM | 1.56 µM
2 | CC[C@H](C)[C@H](N)C(=O)N[C@@H](Cc1ccccc1)C(=O)NCC(=O)N[C@@H](C)C(=O)N[C@H](C(=O)N[C@@H](CC(C)C)C(=O)N1CCC[C@H]1C(=O)N[C@@H](CC(C)C)C(=O)N[C@@H](C)C(=O)N[C@@H](CC(C)C)C(=O)NCC(=O)N[C@@H](C)C(=O)N[C@@H](CC(C)C)C(=O)N[C@@H](CCCCN)C(=O)N[C@@H](CC(N)=O)C(=O)N[C@@H](CC(C)C)C(=O)N[C@H](C(=O)N[C@@H](CCCCN)C(N)=O)[C@@H](C)CC)[C@@H](C)CC [Hylin-a1] | 12.5 µM | 6.25 µM | 3.12 µM | 12.5 µM | 6.25 µM | 3.12 µM
3 | CC[C@H](C)[C@H](NC(=O)[C@@H](N)CCCNC(=N)N)C(=O)NCC(=O)N[C@H](C(=O)N[C@@H](CC(C)C)C(=O)N[C@@H](CC(C)C)C(=O)N[C@@H](C)C(=O)N[C@@H](CCCNC(=N)N)C(=O)N[C@@H](CC(C)C)C(=O)N1CCC[C@H]1C(=O)N[C@@H](CCCCN)C(=O)N[C@@H](CC(C)C)C(=O)N[C@@H](Cc1ccccc1)C(=O)N[C@@H](CO)C(=O)N[C@@H](CC(C)C)C(=O)N[C@@H](Cc1ccccc1)C(=O)N[C@@H](CCCCN)C(=O)N[C@@H](CC(C)C)C(=O)N[C@@H](CCSC)C(=O)NCC(=O)N[C@@H](CCCCN)C(=O)N[C@@H](CCCCN)C(=O)N[C@H](C(N)=O)C(C)C)C(C)C [RV-23] | 12.5 µM | 6.25 µM | 0.39 µM | 6.25 µM | 3.12 µM | 0.78 µM
